Results: ChEMBL document CHEMBL6096727, “Structure-Based Rational Design and Evaluation of BET-Aurora Kinase Dual-Inhibitors for Treatment of Cancers” (J Med Chem, 2025)

How the values were obtained:
[1] = target: T1, Aurora kinase A (Homo sapiens) (UniProt O14965); conditions: dose 111.0 nM
T1 sequence (whole entry): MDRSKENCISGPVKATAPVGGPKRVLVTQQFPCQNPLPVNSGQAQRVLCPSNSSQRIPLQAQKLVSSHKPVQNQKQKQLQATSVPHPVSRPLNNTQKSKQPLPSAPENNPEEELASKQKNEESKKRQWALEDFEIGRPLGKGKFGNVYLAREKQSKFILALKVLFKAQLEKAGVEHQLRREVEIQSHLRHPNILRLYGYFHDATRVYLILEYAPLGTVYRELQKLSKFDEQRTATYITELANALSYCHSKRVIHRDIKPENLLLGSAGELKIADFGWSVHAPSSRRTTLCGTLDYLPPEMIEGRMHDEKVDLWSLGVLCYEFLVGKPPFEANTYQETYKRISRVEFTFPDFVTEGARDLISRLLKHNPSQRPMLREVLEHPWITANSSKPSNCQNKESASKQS

[2] = target: T1, Aurora kinase A (Homo sapiens); conditions: dose 333.0 nM

Row | Compound | inhibition [1] [%] | inhibition [2] [%]
1 | Cc1c(-c2ccnc(Nc3ccc4c(c3)N(C3CCCC3)[C@H](C)C(=O)N4C)n2)c(C2CC2)nn1C | 29 | 
2 | Cc1cnn(C)c1-c1ccnc(Nc2ccc3c(c2)N(C(C)C)[C@H](C)C(=O)N3C)n1 | 9 | 36
3 | Cc1cc(Nc2ccnc(Nc3ccc4c(c3)N(C(C)C)[C@H](C)C(=O)N4C)n2)n(C(C)(C)C)n1 | 19 | 7.6
4 | CC(C)N1c2cc(Nc3nccc(Nc4cc(-c5ccccc5)nn4C)n3)ccc2N(C)C(=O)[C@H]1C |  | -3.9
5 | Cc1cc(Nc2ccnc(Nc3ccc4c(c3)N(C(C)C)[C@H](C)C(=O)N4C)n2)n(-c2ccccc2)n1 | -4.4 | 9
6 | CC(C)N1c2cc(Nc3nccc(-c4ccn(C)n4)n3)ccc2N(C)C(=O)[C@H]1C | -4.2 | 18
7 | Cc1cc(-c2ccnc(Nc3ccc4c(c3)N(C(C)C)[C@H](C)C(=O)N4C)n2)n(C)n1 | 0 | 26
8 | Cc1cc(Nc2ccnc(Nc3ccc4c(c3)N(C(C)C)[C@H](C)C(=O)N4C)n2)n(C)n1 | 2.1 | 28
9 | Cc1cc(Nc2ccnc(Nc3ccc4c(c3)N(C(C)C)[C@H](C)C(=O)N4C)n2)n(C(C)C)n1 | 6.1 | 38
10 | CC(C)N1c2cc(Nc3nccc(Nc4cc(C(C)(C)C)n[nH]4)n3)ccc2N(C)C(=O)[C@H]1C | -7 | 10
11 | Cc1c(-c2ccnc(Nc3ccc4c(n3)N(C(C)C)[C@H](C)C(=O)N4C)n2)c(C2CC2)nn1C | 11 | 
12 | CC(C)N1c2cc(Nc3nccc(Nc4cc(C5CC5)nn4C)n3)ccc2N(C)C(=O)[C@H]1C | 1.2 | 29
13 | CC(C)N1c2cc(Nc3nccc(-c4cc[nH]n4)n3)ccc2N(C)C(=O)[C@H]1C | 23 | 53
14 | CC(C)N1c2cc(Nc3nccc(-c4ccnn4C)n3)ccc2N(C)C(=O)[C@H]1C | 22 | 24

Continued, values first:

Row | inhibition [1] [%] | inhibition [2] [%] | Compound
15 | 24 |  | Cc1nn(C)c(C2CC2)c1-c1ccnc(Nc2ccc3c(c2)N(C(C)C)[C@H](C)C(=O)N3C)n1
16 | 12 | 46 | CC(C)N1c2cc(Nc3nccc(-c4c[nH]nc4C4CCCCC4)n3)ccc2N(C)C(=O)[C@H]1C
17 | 27 |  | Cc1cnc(Nc2ccc3c(c2)N(C(C)C)[C@H](C)C(=O)N3C)nc1-c1c(C2CC2)nn(C)c1C
18 | 34 |  | Cc1c(-c2ccnc(Nc3ccc4c(c3)N(C3CCC3)[C@H](C)C(=O)N4C)n2)c(C2CC2)nn1C
19 | 20 | 4.6 | CC(C)N1c2cc(Nc3nccc(Nc4cc(C(C)(C)C)nn4C)n3)ccc2N(C)C(=O)[C@H]1C
20 | 4.8 | 36 | CCn1nccc1-c1ccnc(Nc2ccc3c(c2)N(C(C)C)[C@H](C)C(=O)N3C)n1
21 | 5.8 | 34 | CC(C)N1c2cc(Nc3nccc(-c4ccnn4C(C)C)n3)ccc2N(C)C(=O)[C@H]1C
22 | 11 | 38 | CC(C)N1c2cc(Nc3nccc(-c4c[nH]nc4-c4ccccc4)n3)ccc2N(C)C(=O)[C@H]1C
23 | 19 | 50 | CC(C)N1c2cc(Nc3nccc(-c4cn[nH]c4)n3)ccc2N(C)C(=O)[C@H]1C
24 | 5.3 |  | Cc1nn(-c2ccccc2)cc1-c1ccnc(Nc2ccc3c(c2)N(C(C)C)[C@H](C)C(=O)N3C)n1
